In patent US20250019381A1, “PROCESS FOR THE […] OF 6-((3S,4S)-4-METHYL-1-(PYRIMIDIN-2-[…])PYRROLIDIN-3-YL)-3-(TETRAHYDROPYRAN-4-YL-7H-IMIDAZO[1,5-a]PYRAZIN-8-ONE” (Cardurion Pharmaceuticals, Inc., priority 2017, published 2025):

Experiment: Blood Brain Barrier penetration: plasma and brain concentration
Type: in vivo

C[C@@H]1CN(Cc2ncccn2)C[C@H]1c1nc2c(cnn2C2CCOCC2)c(=O)[nH]1 (relative stereo)
Brain concentration after 30 minutes (30 min): 500 ng/mL
Brain concentration after 120 minutes (120 min): 215 ng/mL
